The record followed here is paper PMC7020226 (Plants, 2019).

SMILES strings stand for the structures. Changes are numbered by the printed parent chain.

Test in all cases: H2O2 detection, horseradish peroxidase / o-dianisidine coupled assay
What all share (assay type): biochemical
What all share (conditions): 50 mM Tris-HCl pH 8.0, 0.1 mM FMN, 30 °C

The target of experiment [1] is T1, ZmGO1 (Zea mays, UniProt A0A3L6E0R4, T266D).
T1 construct: gene GO1; full length, N-terminal His-tag, pET28a, expressed in Escherichia coli
T1 sequence (A0A3L6E0R4 1-369 T266D): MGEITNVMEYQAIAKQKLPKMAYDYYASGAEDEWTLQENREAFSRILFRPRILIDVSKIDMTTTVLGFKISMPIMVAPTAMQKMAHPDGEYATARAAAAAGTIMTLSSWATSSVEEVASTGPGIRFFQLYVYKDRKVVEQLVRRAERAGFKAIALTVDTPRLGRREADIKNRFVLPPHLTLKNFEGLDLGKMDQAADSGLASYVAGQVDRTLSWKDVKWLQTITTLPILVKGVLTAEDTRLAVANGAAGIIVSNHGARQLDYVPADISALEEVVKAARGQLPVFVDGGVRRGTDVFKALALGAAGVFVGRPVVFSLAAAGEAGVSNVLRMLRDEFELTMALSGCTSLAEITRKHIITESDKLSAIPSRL

In experiment [2] the target is T2, ZmGO1 (Zea mays, UniProt A0A3L6E0R4).
T2 construct: gene GO1; full length, N-terminal His-tag, pET28a, expressed in Escherichia coli
T2 sequence (A0A3L6E0R4 1-369): T1 sequence (A0A3L6E0R4 1-369 T266D) with D266T

Experiment [3] has as its target T3, ZmGO1 (Zea mays, UniProt A0A3L6E0R4, T5D).
T3 construct: gene GO1; full length, N-terminal His-tag, pET28a, expressed in Escherichia coli
T3 sequence (A0A3L6E0R4 1-369 T5D): T1 sequence (A0A3L6E0R4 1-369 T266D) with T5D, D266T

Experiment [4] addresses T4, ZmGO1 (Zea mays, UniProt A0A3L6E0R4, T159V).
T4 construct: gene GO1; full length, N-terminal His-tag, pET28a, expressed in Escherichia coli
T4 sequence (A0A3L6E0R4 1-369 T159V): T1 sequence (A0A3L6E0R4 1-369 T266D) with T159V, D266T

On to `O=C(O)CO` [glycolate], for which the Km (usually the substrate concentration at which the rate is half of its maximum) on ZmGO1 [1] came out at 173 ± 65 µM; at ZmGO1 [2], 126 ± 34 µM; on ZmGO1 [3], 157 ± 31 µM; on ZmGO1 [4], 46 ± 20 µM.
